These results are taken from PubChem BioAssay AID1379 (National Center for Advancing Translational Sciences (NCATS), 2008).

The entries are a selection whose mix differs from that of the whole data set. The source made the active and inactive calls. The call rests on the fitted dose curve; in most records, active means well fitted inhibition curve with a large enough effect; inconclusive means small, poorly fitted or top-dose-only effect; inactive means flat fitted curve, though single readings scatter.
On the % scale 0 is the no-effect control and ±100 the full control effect.

The experiment concerns the target Luciferin 4-monooxygenase (Photuris pensylvanica) (UniProt Q27757). The experiment in a line: Counterscreen for Luciferase (Kinase-Glo TM) Inhibition. Further: nearly all actives have a fitted effect of over 60% in size. The note with it: ATP luminescence, 8 min; at 38.3 µM (top of the series) unless noted. The procedure:
NCGC Assay Overview: NIH Molecular Libraries Screening Centers Network [MLSCN] NIH Chemical Genomics Center [NCGC] MLSCN Grant: None Luciferase (Kinase-Glo, Promega Corporation) was assayed for its ability to generate light using ATP and luciferin as substrates. The ATP concentration in the assay (10 uM) was within the linear range of enzyme activity for the assay conditions used.
NCGC Assay Protocol Summary: Four uL of substrate mix (final concentration, 50 mM imidazole pH 7.2, 50 mM KCl, 7 mM MgCl2, 10 uM ATP, 0.01% Tween 20, 0.05% BSA) was dispensed into white 1536 well plates. Twenty-three nL of compound was delivered by a pin tool and 2 uL of luciferase detection mix (Kinase-Glo, Promega)) was added. Following 8-minute incubation at ambient temperature, luminescence was measured by a ViewLux (Perkin Elmer) at 5 seconds exposure/plate.
For the compound `CCOC(=O)N1CCC(Nc2ccc(OC)cc2)CC1`, the activity change, negative = inhibition is inactive: -4%.

Take `O=C(OC1CN2CCC1CC2)C1c2ccccc2Oc2ccccc21` (stereo not drawn): the activity change, negative = inhibition is inactive: -1.02%.

For the compound `O=C(NCC1(N2CCOCC2)CCCCC1)c1cc2ccccc2o1`, the activity change, negative = inhibition was inactive: 2.04%.

Take `COc1ccc(C(=O)NCC2(N3CCCCC3)CCCCC2)c(OC)c1OC`: the activity change, negative = inhibition was inactive: -0.215%.

Turning to `COc1ccc(NC2CCN(CCc3ccccc3)CC2)c(OC)c1`, the activity change, negative = inhibition is inactive: 0.0195%.

For `CN1CCN(CCOC(=O)C(O)(c2ccccc2)c2ccccc2)CC1`, the activity change, negative = inhibition was inactive: -2.53%.

For the compound `COc1ccc(NC2CCN(C(=O)OC(C)(C)C)CC2)cc1`, the activity change, negative = inhibition was inactive: 1.55%.

For the compound `O=C(NCC1(N2CCOCC2)CCCCC1)c1cc(=O)[nH]c2ccccc12`, the activity change, negative = inhibition was inactive: 1.46%.

Regarding `O=[N+]([O-])c1cc([N+](=O)[O-])c(NCC2CCS(=O)(=O)C2)c([N+](=O)[O-])c1` (stereo not drawn), the activity change, negative = inhibition was inactive: 2.65%.

As for `O=C(NCC1(N2CCCCC2)CCCCC1)c1cccc([N+](=O)[O-])c1`, the activity change, negative = inhibition is inactive: 0.0373%.

As for `N#CC1(Nc2ccccc2)CCN(CCc2ccccc2)CC1`, the activity change, negative = inhibition is inactive: 0.564%.

On to `NC1CCCCC1.NP(=O)(O)N(CCCl)CCCl`, for which the activity change, negative = inhibition was inactive: -7.24% [at 7.66 µM].

Turning to `COc1ccc(CN(CCCl)CCCl)cc1Cl`, the activity change, negative = inhibition was inactive: -0.0925%.

Consider `CN(C)c1cccc(C(=O)NCC2(N3CCCCC3)CCCCC2)c1`, for which the activity change, negative = inhibition was inactive: -0.574%.

For the compound `CC(C)c1ccc(NC2CCN(C(=O)OC(C)(C)C)CC2)cc1`, the activity change, negative = inhibition is inactive: -0.482%.

For the compound `O=C(OC1CN2CCC1CC2)C1c2ccccc2C=Cc2ccccc21` (stereo not drawn), the activity change, negative = inhibition is inactive: -3.12%.

On to `N/C(=N\O)c1c(N)no[n+]1[O-]`, for which the activity change, negative = inhibition is inactive: -2.02%.

For `COc1ccc(C(=O)NCC2(N3CCOCC3)CCCCC2)cc1OC`, the activity change, negative = inhibition was inactive: 2.34%.

Take `c1ccc(CN2CCC(Nc3ccccc3)CC2)cc1`: the activity change, negative = inhibition was inactive: 22.8%.

On to `N#Cc1ccc(C(=O)NCC2(N3CCCCC3)CCCCC2)cc1`, for which the activity change, negative = inhibition is inactive: -0.392%.

On to `CN(C)c1ccc(C(=O)NCC2(N3CCCCC3)CCCCC2)cc1`, for which the activity change, negative = inhibition was inactive: 1.17%.

For the compound `CCN1CCC(Nc2cccc(F)c2)CC1`, the activity change, negative = inhibition was inactive: 0.82%.

In the case of `Fc1ccccc1NC1CCN(Cc2ccccc2)CC1`, the activity change, negative = inhibition was inactive: 15.8%.

In the case of `CCC(CO)(C(=O)OC1CN2CCC1CC2)c1ccccc1` (stereo not drawn), the activity change, negative = inhibition is inactive: 0.183%.

For the compound `COc1cc(OC)cc(C(=O)NCC2(N3CCOCC3)CCCCC2)c1`, the activity change, negative = inhibition is inactive: -0.557%.

As to `CC(C)(C)OC(=O)N1CCC(Nc2ccccc2)CC1`, the activity change, negative = inhibition is inactive: -0.492%.

Regarding `O=C(O)C1(Nc2ccccc2)CCN(Cc2ccccc2)CC1`, the activity change, negative = inhibition was inactive: -0.372% [at 7.66 µM].

For `CCOc1ncccc1C(=O)NCC1(N2CCOCC2)CCCCC1`, the activity change, negative = inhibition was inactive: -6.16%.
